Laboratory results: patent EP0415470A2, “Aminopeptidase” (CAMPINA MELKUNIE B.V., priority 1989, dated 1991)

Amino acid sequences for entries named in this document (tags omitted). A change or cut given only in a name is not applied to a line headed by its entry.
UniProt P0C2T8: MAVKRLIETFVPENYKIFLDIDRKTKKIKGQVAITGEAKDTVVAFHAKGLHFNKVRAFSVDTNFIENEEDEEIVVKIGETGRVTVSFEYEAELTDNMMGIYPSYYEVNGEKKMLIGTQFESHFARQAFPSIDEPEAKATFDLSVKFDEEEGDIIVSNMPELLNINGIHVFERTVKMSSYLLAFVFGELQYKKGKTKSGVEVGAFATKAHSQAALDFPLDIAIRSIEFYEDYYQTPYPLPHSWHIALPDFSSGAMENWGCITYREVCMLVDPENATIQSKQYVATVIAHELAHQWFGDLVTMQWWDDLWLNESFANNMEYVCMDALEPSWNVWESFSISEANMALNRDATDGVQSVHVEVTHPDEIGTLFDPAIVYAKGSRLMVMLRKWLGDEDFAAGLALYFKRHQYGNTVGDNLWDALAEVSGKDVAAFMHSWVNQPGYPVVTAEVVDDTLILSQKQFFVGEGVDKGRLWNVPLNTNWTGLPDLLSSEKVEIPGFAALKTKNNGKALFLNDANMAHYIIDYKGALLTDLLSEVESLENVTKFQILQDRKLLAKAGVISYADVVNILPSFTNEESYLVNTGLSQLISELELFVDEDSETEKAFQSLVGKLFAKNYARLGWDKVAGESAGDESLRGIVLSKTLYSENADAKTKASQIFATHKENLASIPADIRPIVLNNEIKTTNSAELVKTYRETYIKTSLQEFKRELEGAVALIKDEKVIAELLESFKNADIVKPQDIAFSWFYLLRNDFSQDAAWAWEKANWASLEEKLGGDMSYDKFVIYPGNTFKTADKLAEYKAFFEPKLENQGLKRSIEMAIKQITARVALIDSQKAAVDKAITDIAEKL

Target: aminopeptidase of L. lactis subsp. cremoris Wg2 (Lactococcus lactis subsp. cremoris, UniProt P0C2T8)
Test: Effect of divalent cations and chemical substances on the enzyme activity
Format: biochemical
Conditions: for activity of the enzyme treated with 1,10-phenanthroline restored to: addition of 50 µM salt, enzyme treated with 200 µM 1,10-phenanthroline; for inhibition of the enzyme activity: 100 µM; for inhibition of the activity: 25 µM

With CoCl₂ the “activity of the enzyme treated with 1,10-phenanthroline restored to” value was 80%.

For ZnCl₂, the “restoration of the activity of the enzyme treated with 1,10-phenanthroline (in words)” value (“restoration” below) was “most effective stimulator”, the “inhibition of the enzyme activity” value was 32% and the “activity of the enzyme treated with 1,10-phenanthroline restored to” value was 88%. For the same molecule, the “effect of zinc ions at higher concentrations (in words)” value (concentrations of more than 100 µM, enzyme treated with 1,10-phenanthroline) was “inhibition”.

`O=[As]c1ccccc1` (stereo not drawn) was tested, and the “effect on the hydrolysis activity of the enzyme (in words)” value (2.5 mM) was “no effect” and the “effect of chemical reagents on the aminopeptidase activity (in words)” value (reagents to sulphydryl, thiol and disulphide groups, concentration not given) was “insensitive”.

CuCl₂ was tested, and the “restoration” value was “could not restore the enzyme activity” and the “inhibition of the activity” value was 8%.

For Cd(NO₃)₂, the “inhibition of the activity” value was 35%.

In the case of FeCl₂, the “restoration” value is reported as “could not restore the enzyme activity” and the “inhibition of the enzyme activity” value is reported as 60%.
